From patent US4415566A, “Cephalosporin derivatives” (Boehringer Ingelheim GmbH, priority 1979, dated 1983) come the findings set out here.

A value given as a limit tells only on which side of the number the result lay.

The subject of this assay is Proteus rettgeri. Nature of the assay: Serial dilution test in the microtiter system (MIC), Prot. rettgeri. The conditions noted are these: Providencia rettgeri.

Turning to `Cc1nnc(SCC2=C(C(=O)O)N3C(=O)[C@@H](NC(=O)Cn4cnnn4)[C@H]3SC2)s1` [Cephazolin, reference compound], the MIC is over 128 mg/L.

By MIC is commonly meant the smallest concentration in the dilution series that meets the test's criterion for growth inhibition. Read a low MIC as a more susceptible organism.
